Test results taken from patent US9969697B2, “3,4-dihydroquinazoline derivative and combination comprising the same” (UNIVERSITY-INDUSTRY COOPERATION GROUP OF KYUNG HEE …, priority 2014, dated 2018).

System: lung cancer cells (A549)
Test: Cell cycle analysis by PI staining / flow cytometry, with combination index
Format: cell-based, human
Settings: A549, 48 hours, 100 μM
Protocol: To measure the inviability of cancer cells quantitatively, the cell cycle thereof was analyzed through flow cytometry as follows, in accordance with the method given in the document [See Kim, Y. H. et al., Expression of the murine homologue of the cell cycle control protein […] in T lymphocytes.
After adding ribonuclease (2.5 μg/ml) and propidium iodide (50 μg/ml) together with 500 μl of PBS, the cells were left for 30 minutes in the dark at room temperature, followed by analyzing cell cycle within 1 hour using FACScan flow cytometer (Becton Dickinson Co, Heidelberg, Germany).
Combination index (CI) mathematically expresses the cytotoxicity on cancer cells or growth inhibition of cancer cells through relative comparison after treating drugs alone or in a combination. The CI is the quantitative concept introduced by Paul Talalay and Ting-Chao Chou and was calculated using CalcuSyn software. The effect of combination treatment according to the values of CI was defined as follows.

Cc1ccc(NC(=O)c2ccc(CN3CCN(C)CC3)cc2)cc1Nc1nccc(-c2cccnc2)n1 [Imatinib]
S (Table 5): 10.7 | S (Table 6): 10.7
